# Measured affinities in a library of Ab-95 light chain variants

Values reported by Engelhart et al. 2022, doi:10.1038/s41597-022-01779-4 (FLAb copy).

Antigen: PDVDLGDISGINAS, a 14-residue peptide of the SARS-CoV-2 spike HR2 region.

Ab-95 is the parent antibody, in scFv form: VH, then a (GGGGS)3 linker, then VL. The heavy chain is unchanged in all variants.
VH: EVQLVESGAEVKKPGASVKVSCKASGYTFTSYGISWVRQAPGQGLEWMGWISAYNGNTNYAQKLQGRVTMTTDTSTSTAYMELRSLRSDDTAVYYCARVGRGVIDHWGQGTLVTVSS
VL: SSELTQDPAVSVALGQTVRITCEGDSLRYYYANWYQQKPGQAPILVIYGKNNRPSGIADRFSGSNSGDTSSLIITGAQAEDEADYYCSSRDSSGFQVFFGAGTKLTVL

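The parent was found by panning a naive human phage display library on the peptide. AAYL52 was designed without a model: most single CDR substitutions and a random sample of double and triple ones. The scFvs were displayed on barcoded MATa yeast, the peptide on MATalpha yeast. Mating (16 h, 30 °C) was followed by selection of diploids and sequencing of their barcodes. A regression on co-assayed BCL2-family reference pairs converts the normalised counts of each replicate to an apparent Kd. There are three technical replicates.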

Sequences are complete VL domains. Values are log10 of the apparent Kd in nM; lower means stronger binding. An entry "nd" has no value in the source: the pair was not observed among the diploids in that replicate. This suggests poor binding but is not conclusive. Background: pairings of library AAYL52 with three empty control strains gave a value in 28% of cases (median 3.91, 5th percentile 2.90). Values in that range, when seen in few replicates, are hard to tell from nonspecific mating. The control count says in how many pairings with the empty strains this scFv gave a signal, with their mean in brackets.

VL	log10 Kd (nM) by replicate	signal with controls
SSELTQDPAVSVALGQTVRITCFGDSLRYYYANWYQQKPGQAPILVIYGKNNRPSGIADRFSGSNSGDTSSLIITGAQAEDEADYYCSSRDSSGQDVFFGAGTKLTVL	3.48 3.15 4.46	3/9 (4.35)
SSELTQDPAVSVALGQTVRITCEGDSVRYYYANWYQQKPGQAPILVIYPKNNRPSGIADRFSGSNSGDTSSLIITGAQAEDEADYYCSSRDSSTFQVFFGAGTKLTVL	nd nd nd	0/9
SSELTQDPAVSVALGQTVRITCEGDDLRYYYAQWYQQKPGQAPILVIYKKNNRPSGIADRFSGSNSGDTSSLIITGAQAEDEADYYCSSRDSSGFQVFFGAGTKLTVL	4.02 4.53 nd	3/9 (3.96)
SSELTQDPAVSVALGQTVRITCEGDMLRYYYANWYQQKPGQAPILVIYGWNNRPSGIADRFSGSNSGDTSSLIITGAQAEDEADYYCSSRDSSGQQVFFGAGTKLTVL	3.11 2.10 2.51	1/9 (3.60)
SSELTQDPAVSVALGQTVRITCEGDSLRYYYAFWYQQKPGQAPILVIYDKNNRPSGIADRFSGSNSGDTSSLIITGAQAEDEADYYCSSRESSGFQVFFGAGTKLTVL	nd 4.13 nd	0/9
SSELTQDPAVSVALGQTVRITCEQDSLRYYYGNWYQQKPGQAPILVIYGKNNRPSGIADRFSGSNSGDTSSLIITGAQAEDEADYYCSSRDSSGMQVFFGAGTKLTVL	nd nd nd	3/9 (3.71)
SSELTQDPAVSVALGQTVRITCAWDSTRYYYANWYQQKPGQAPILVIYGKNNRPSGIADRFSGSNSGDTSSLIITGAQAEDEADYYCSSRDSSGFQVFFGAGTKLTVL	3.35 4.18 2.80	5/9 (3.72)
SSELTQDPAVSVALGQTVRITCEGDSLRYYNANWYQQKPGQAPILVIYGKNPHPSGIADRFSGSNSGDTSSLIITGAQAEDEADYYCSSRDSSGFQVFFGAGTKLTVL	1.86 2.65 1.59	0/9
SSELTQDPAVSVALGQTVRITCEPDSLRYYYANWYQQKPGQAPILVIYGKNCRPSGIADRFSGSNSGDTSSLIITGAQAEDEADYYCSSDDSSGFQVFFGAGTKLTVL	3.52 2.72 3.62	2/9 (3.81)
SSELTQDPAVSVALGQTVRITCEGDSLRYYYAWWYQQKPGQAPILVIYGKNNCPSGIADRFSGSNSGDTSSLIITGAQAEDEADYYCSSRDSSGFQVFFGAGTKLTVL	nd nd nd	1/9 (4.27)
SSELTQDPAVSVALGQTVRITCEGDSLRYYYANWYQQKPGQAPILVIYFKNMRPSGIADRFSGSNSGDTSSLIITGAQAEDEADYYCSSRDSSGFQVFFGAGTKLTVL	nd nd nd	2/9 (3.88)
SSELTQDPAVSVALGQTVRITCEGDSLDYYYANWYQQKPGQAPILVIYGKCNRPSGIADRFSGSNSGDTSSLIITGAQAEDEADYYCSLRDSSGFQVFFGAGTKLTVL	nd 4.03 nd	3/9 (4.15)
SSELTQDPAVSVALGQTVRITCEGDSLCYYYANWYQQKPGQAPILVIYGKNNRPSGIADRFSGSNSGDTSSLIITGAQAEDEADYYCESRDSSGFQVFFGAGTKLTVL	2.13 1.99 1.31	2/9 (3.16)
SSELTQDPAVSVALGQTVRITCEGASLRYYYANWYQQKPGQAPILVIYGKNNRPSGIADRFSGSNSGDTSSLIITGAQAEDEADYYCISRVSSGFQVFFGAGTKLTVL	2.71 3.07 1.59	1/9 (4.98)
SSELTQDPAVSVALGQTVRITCAGDSLRYYYANWYQQKPGQAPILVIYAKNNRPSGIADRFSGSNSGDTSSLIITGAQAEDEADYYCTSRDSSGFQVFFGAGTKLTVL	nd 5.87 nd	3/9 (4.82)
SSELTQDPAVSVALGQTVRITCEGVSLRYYYANWYQQKPGQAPILVIYGKNNRESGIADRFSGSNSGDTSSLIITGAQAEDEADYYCSTRDSSGFQVFFGAGTKLTVL	2.88 4.34 1.92	1/9 (2.25)

The last 2 entries again:

VL	log10 Kd (nM) by replicate	signal with controls
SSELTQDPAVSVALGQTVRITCAGDSLRYYYANWYQQKPGQAPILVIYAKNNRPSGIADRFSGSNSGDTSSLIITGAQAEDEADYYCTSRDSSGFQVFFGAGTKLTVL	nd 5.87 nd	3/9 (4.82)
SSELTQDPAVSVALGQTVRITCEGVSLRYYYANWYQQKPGQAPILVIYGKNNRESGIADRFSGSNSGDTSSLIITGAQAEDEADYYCSTRDSSGFQVFFGAGTKLTVL	2.88 4.34 1.92	1/9 (2.25)